Test results: patent publication US11590129B2, “Combination therapy with an antitumor alkaloid” (PHARMA MAR, S.A., priority 2010, dated 2023)

Legend:
[1] = test system: A2780 tumors; test: Human ovarian tumor xenografts (A2780) in athymic nude mice, tumor volume % T/C; format: in vivo; details: doxorubicin 4.0 mg/kg iv days 0,7
Protocol: (§1) Female athymic nude mice (Harlan Laboratories Models, S.L. (Barcelona, Spain) were utilized for all experiments. Animals were housed in individually ventilated cages, up to ten per cage in a 12-hour light-dark cycle at 21-23° C. and 40-60% humidity. The mice were allowed free access to irradiated standard rodent diet and sterilized water. Animals were acclimated for at least 5 days prior to tumor implantation with a tumor cell suspension.
The formula to calculate volume for a prolate ellipsoid was used to estimate tumor volume (mm^3) from 2-dimensional tumor measurements: Tumor volume (mm^3)=[L×W^2]÷2, where L is the length and it is the longest diameter in mm, and W is the width and it is the shortest diameter in mm of a tumor. Assuming unit density, volume was converted to weight (i.e., 1 mm^3=1 mg). Tumor volume and animal body weights were measured 2-3 times per week starting form the first day of treatment (Day 0).
PM01183 was provided in the form of vials of lyophilized PM01183 cake which was reconstituted with water for infusion to a concentration of 0.2 mg/mL. The PM01183 stock solution was further diluted in 5% glucose solution for injection to the dosing formulation concentrations. […] Vinorelbine was provided as a solution prepared by diluting the product with 0.9% saline solution.
Dose level groups were administered either as single agents or in combination. […]

[2] = test system: SW1990 tumors; test: Human pancreatic tumor xenografts (SW1990) in athymic nude mice, tumor volume % T/C; format: in vivo; details: gemcitabine 90.0 mg/kg iv days 0,7,14
Protocol: as §1
Each animal was subcutaneously implanted on the right flank, using 26G needle and a 1 cc syringe, with 5×10^6 SW1990 cells, from in vitro passage 12, in 0.05 mL suspension of 50% Matrigel and 50% serum free medium, without antibiotics.
PM01183 was provided in the form of vials of lyophilized PM01183 cake which was reconstituted with water for infusion to a concentration of 0.2 mg/mL. The PM01183 stock solution was further diluted in 5% glucose solution for injection to the dosing formulation concentrations.
Dose level groups were administered either as single agents or in combination.
Comparison of the median tumor volume in the treatment groups (T) to the median tumor volume in the control group (T/C×100%) was used for evaluation of the antitumor efficacy.

In the case of `COc1cccc2c1C(=O)c1c(O)c3c(c(O)c1C2=O)C[C@@](O)(C(=O)CO)C[C@@H]3O[C@H]1C[C@H](N)[C@H](O)[C@H](C)O1` [Doxorubicin, doxorubicin], the “% T/C on day 10” value [1] is reported as 68.9%.

In the case of `Nc1ccn([C@@H]2O[C@H](CO)[C@@H](O)C2(F)F)c(=O)n1` [Gemcitabine, gemcitabine], the “% T/C on day 17” value [2] is reported as 47.4%.
